# Values of other authors, collected in US20230312752A1 (Brown University, priority 2021, published 2023).
# The chains behind the UniProt entries cited, without tags or fusion partners. Where a name states a change or a piece, a line headed by the entry shows the natural chain unless it says otherwise.
# UniProt P50613: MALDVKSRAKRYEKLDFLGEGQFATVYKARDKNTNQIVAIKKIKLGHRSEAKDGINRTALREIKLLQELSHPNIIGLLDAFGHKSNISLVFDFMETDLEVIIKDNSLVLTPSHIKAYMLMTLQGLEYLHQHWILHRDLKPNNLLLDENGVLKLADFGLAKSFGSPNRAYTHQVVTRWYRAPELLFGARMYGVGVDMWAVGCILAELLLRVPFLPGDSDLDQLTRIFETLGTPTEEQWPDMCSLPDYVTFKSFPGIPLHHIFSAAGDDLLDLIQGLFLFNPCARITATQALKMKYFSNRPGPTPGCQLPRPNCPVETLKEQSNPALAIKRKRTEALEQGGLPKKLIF
# UniProt P11802, whole entry, species assumed: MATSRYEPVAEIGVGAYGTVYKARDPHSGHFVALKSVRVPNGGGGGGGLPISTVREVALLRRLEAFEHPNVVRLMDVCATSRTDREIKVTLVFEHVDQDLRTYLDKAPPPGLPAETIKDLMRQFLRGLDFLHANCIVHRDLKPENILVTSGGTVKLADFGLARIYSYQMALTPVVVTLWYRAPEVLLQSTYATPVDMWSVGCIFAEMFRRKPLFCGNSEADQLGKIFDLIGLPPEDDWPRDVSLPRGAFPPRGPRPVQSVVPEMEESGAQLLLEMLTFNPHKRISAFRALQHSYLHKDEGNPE
# Key:
# CDK7 = CDK7 (Homo sapiens, UniProt P50613); set-up: key: + is used to indicate the potency of the inhibitor; ++++ > +++ > ++ > +; + is used to indicate the potency of the inhibitor; ++++ > +++ > ++ > +; + is used to indicate the potency of the inhibitor; ++++ > +++ > ++ > +; + is used to indicate the potency of the inhibitor; ++++ > +++ > ++ > +; ◯ refers to compounds with inhibitory effects on the related isoform, but without specific value; conditions: cited from earlier work
# CDK4 = CDK4 (Homo sapiens, UniProt P11802); set-up: key to the marks not given beside the values; conditions: cited from earlier work
Substance,Inhibitory potency CDK7 (CDK7),Inhibitory potency CDK4 (CDK4)
BS-181 HCl,+++,–
Palbociclib Isethionate,–,++++
